Experiments:
[1] = target: isolated wild-type ecto-IR-A conjugated with mCherry (human) (UniProt P06213); assay: radioligand binding; saturation binding of the 125I-labelled ligand (0.05-5 nM) to isolated ectodomain-mCherry (300 ng/well) immobilised through its HisTag on 96-well plates by nickel-NTA iBodies with biotin on neutravidin; otherwise as the whole-cell assay; one-site specific binding fit
[2] = target: whole IR-A Arg717Gln transfected to R- cells (human) (UniProt P06213); assay: radioligand binding; saturation binding of the 125I-labelled ligand (0.05-3 nM) to R- cells 24 h after transfection with the whole receptor; 16 h at 5°C; 100 mM HEPES/NaOH pH 7.6, 100 mM NaCl, 5 mM KCl, 1.3 mM MgSO4, 1 mM EDTA, 10 mM glucose, 15 mM sodium acetate, 1% BSA; non-specific binding (1 uM unlabelled ligand) subtracted; one-site specific binding fit
[3] = target: whole IR-A Arg717Lys transfected to R- cells (human) (UniProt P06213); assay: as above
[4] = target: whole wild-type IR-A transfected to R- cells (human) (UniProt P06213); assay: as above

By UniProt entry, the sequences of proteins in these tests, tags left out. Chains listed by the source or under a name are the forms on record and can include a tag or linker.
UniProt P06213, other isoform, or with tags, fused parts or gaps R717Q: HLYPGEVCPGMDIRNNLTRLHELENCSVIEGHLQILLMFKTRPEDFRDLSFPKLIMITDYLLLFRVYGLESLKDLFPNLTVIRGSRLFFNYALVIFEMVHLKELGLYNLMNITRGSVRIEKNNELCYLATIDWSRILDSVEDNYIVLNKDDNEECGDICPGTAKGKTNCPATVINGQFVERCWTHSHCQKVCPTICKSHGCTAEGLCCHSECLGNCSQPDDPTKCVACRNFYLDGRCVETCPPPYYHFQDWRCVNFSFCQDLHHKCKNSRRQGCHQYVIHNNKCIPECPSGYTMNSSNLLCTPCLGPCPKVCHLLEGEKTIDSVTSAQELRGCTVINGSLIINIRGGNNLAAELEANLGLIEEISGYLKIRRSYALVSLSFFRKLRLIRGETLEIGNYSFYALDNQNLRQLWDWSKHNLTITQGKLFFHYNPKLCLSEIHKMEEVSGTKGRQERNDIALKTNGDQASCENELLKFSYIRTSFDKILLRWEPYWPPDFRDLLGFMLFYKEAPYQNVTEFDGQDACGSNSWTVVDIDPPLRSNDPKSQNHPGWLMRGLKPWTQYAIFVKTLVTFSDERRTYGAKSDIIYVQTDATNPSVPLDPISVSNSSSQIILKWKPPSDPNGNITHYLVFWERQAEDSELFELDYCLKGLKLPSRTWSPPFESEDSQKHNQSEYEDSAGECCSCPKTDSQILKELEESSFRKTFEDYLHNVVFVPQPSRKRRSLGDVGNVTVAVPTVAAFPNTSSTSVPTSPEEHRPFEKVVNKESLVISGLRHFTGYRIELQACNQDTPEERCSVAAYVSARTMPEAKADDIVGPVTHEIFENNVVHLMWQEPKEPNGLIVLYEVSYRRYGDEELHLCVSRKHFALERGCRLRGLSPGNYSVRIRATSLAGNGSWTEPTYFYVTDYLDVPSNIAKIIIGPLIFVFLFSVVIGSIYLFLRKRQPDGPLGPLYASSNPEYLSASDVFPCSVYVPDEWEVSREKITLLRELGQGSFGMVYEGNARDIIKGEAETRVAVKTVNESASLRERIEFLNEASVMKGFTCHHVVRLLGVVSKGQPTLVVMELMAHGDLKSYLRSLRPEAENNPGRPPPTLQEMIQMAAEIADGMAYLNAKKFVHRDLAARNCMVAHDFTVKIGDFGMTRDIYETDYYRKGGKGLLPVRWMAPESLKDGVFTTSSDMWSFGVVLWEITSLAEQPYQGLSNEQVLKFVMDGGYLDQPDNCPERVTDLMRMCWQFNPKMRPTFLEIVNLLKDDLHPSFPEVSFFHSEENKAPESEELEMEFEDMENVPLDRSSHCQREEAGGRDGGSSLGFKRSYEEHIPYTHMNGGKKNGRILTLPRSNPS
UniProt P06213, other isoform, or with tags, fused parts or gaps R717K: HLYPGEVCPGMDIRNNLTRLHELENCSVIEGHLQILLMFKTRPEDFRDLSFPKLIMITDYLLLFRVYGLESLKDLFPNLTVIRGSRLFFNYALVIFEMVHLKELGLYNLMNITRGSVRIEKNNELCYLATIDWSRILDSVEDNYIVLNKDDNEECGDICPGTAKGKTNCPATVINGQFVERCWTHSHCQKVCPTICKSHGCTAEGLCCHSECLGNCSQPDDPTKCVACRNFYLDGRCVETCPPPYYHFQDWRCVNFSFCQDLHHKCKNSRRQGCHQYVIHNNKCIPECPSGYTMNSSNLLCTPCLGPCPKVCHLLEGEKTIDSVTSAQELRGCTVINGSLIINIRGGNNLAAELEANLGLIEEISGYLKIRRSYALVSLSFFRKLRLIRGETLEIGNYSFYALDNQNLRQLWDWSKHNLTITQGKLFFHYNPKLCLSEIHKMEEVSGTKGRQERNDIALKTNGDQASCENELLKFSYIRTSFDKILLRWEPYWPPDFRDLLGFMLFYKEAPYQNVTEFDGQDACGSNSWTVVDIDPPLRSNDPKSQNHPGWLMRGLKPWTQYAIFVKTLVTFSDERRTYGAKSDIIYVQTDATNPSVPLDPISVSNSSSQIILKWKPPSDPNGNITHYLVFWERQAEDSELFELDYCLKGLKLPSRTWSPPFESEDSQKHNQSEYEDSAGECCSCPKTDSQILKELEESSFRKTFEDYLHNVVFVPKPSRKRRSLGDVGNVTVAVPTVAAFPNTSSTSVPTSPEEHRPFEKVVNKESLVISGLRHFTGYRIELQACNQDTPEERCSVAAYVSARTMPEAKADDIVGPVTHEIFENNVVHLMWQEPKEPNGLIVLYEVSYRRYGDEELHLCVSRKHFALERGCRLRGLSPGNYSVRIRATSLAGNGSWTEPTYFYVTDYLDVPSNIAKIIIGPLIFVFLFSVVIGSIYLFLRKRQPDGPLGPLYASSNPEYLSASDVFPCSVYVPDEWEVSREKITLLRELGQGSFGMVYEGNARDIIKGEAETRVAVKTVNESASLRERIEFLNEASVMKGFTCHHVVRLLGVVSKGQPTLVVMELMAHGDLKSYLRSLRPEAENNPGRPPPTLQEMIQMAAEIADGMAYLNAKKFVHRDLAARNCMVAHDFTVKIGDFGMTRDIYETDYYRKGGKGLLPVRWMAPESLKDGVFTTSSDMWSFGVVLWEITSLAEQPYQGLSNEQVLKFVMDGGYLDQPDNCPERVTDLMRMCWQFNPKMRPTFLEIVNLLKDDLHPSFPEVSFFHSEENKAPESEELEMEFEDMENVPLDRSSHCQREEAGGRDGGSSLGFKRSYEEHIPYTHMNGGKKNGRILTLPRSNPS

Kd [1]: 610 pM
Kd [2]: 270 pM
Kd [3]: 550 pM
Kd [4]: 200 pM
Substance: 125I-TyrA14 human insulin (ligand)
